Each structure is given as a SMILES string.

This test concerns the target LSD1-CoREST (Homo sapiens, UniProt O60341). It is filed as binding.

Consider `COc1cc2nc(NCCCN(C)C)nc(N(C)C)c2cc1OC` [MC3767, N^2-(3-(dimethylamino)propyl)-6,7-dimethoxy-N^4,N^4-dimethylquinazoline-2,4-diamine], for which the Kd entry was “reduced affinity for LSD1”.
